In patent US9957247B2, “SecA inhibitors and methods of making and using thereof” (Georgia State University Research Foundation, Inc., priority 2012, dated 2018):
pIC50: −log10 of the molar value.

Chains of the proteins cited; added tags and fusions are not shown.
UniProt P28366, whole entry: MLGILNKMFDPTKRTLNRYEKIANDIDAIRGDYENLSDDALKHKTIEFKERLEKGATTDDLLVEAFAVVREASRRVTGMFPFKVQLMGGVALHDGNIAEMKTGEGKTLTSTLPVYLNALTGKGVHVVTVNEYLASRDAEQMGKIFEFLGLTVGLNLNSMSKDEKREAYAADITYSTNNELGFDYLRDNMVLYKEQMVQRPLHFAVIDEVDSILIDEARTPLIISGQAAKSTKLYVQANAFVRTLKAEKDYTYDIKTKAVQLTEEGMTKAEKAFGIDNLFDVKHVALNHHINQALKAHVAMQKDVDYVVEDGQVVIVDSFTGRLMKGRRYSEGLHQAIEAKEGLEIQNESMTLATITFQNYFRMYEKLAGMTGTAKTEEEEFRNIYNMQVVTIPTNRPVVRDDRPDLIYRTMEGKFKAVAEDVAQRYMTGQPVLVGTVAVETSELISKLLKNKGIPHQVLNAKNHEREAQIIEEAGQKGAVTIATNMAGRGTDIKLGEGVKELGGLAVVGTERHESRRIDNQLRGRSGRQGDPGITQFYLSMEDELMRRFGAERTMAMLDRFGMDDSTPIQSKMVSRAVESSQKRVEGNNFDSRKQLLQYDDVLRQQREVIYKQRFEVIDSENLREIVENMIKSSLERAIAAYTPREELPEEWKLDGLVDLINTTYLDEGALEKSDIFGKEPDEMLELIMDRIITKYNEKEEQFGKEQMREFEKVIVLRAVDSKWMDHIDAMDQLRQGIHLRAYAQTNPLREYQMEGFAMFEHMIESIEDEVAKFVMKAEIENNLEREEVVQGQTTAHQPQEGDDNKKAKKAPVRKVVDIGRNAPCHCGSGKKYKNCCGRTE
UniProt P10408, whole entry: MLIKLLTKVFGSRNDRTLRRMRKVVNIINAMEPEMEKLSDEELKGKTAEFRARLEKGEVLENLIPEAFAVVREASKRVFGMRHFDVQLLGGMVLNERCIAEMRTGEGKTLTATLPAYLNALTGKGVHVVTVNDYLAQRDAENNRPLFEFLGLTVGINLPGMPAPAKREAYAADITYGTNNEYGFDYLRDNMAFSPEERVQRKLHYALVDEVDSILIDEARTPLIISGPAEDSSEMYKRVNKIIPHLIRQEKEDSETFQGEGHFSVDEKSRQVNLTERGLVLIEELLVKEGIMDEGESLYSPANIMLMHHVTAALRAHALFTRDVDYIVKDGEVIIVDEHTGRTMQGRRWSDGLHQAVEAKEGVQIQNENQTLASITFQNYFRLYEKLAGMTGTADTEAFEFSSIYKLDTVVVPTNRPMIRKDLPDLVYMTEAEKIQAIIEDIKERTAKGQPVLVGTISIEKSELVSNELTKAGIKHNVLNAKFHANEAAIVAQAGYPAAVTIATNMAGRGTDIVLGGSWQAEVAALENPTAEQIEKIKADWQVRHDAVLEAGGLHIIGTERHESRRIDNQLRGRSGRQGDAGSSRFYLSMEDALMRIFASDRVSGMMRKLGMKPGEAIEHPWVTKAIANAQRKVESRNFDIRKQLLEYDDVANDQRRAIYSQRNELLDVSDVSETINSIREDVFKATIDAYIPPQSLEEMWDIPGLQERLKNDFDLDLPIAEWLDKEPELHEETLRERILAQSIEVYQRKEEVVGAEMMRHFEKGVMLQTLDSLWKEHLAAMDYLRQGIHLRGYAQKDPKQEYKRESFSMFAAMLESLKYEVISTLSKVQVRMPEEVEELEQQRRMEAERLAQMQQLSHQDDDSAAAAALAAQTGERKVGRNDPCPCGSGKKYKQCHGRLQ
UniProt P0AGA2, whole entry partner: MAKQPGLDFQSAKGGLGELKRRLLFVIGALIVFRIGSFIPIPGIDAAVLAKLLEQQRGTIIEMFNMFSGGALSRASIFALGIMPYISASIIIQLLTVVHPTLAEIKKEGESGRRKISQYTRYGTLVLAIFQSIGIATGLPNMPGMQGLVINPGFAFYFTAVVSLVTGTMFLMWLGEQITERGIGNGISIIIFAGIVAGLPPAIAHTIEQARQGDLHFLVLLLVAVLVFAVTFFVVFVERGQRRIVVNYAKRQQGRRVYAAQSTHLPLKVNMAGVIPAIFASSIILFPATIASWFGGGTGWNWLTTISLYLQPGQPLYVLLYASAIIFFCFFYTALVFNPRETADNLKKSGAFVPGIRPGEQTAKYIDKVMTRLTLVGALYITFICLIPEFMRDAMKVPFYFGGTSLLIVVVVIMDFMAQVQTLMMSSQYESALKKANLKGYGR
UniProt P0AG96, whole entry partner: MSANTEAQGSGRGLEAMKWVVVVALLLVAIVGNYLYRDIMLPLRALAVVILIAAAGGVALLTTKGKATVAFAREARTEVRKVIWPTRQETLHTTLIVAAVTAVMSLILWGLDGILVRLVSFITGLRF
UniProt P0AG99, whole entry partner: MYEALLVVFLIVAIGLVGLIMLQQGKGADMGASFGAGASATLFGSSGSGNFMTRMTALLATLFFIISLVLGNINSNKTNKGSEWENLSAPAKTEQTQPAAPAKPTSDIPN

Experiments:
[1] = biological target: BsSecA (Bacillus subtilis, UniProt P28366)
[2] = biological target: EcSecA (Escherichia coli, UniProt P10408)

FC(F)(F)c1cc(-c2nnc(Sc3cc(Cl)nc(Sc4ccccc4)n3)[nH]2)cc(C(F)(F)F)c1
pIC50 [1]: < 3.70 | pIC50 [2]: 5.30
